The source of these data is ChEMBL document CHEMBL1128128, “Relationship between structure and bioavailability in a series of hydroxamate based metalloprotease inhibitors” (Bioorg Med Chem Lett, 1995).

What is called Ki is a measure of affinity in units of concentration, obtained from inhibition or displacement. Lower therefore signals a stronger hold on the target.

For this assay, the target named is T1, Interstitial collagenase (Homo sapiens, UniProt P03956).
T1 sequence (P03956 whole entry): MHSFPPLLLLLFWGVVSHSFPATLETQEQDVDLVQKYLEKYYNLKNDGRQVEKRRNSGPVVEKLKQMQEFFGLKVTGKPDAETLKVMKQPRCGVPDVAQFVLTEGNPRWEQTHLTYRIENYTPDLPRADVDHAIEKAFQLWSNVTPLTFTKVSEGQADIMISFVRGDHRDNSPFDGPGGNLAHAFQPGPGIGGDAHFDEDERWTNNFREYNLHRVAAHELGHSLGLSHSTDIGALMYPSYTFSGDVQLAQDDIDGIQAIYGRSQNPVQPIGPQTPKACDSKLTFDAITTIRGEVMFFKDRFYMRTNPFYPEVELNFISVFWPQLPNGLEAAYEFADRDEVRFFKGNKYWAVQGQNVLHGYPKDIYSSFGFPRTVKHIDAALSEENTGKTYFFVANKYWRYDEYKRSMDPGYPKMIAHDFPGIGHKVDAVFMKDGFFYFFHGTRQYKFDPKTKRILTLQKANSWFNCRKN
Briefly: Evaluated for inhibitory activity against Human fibroblast collagenase (HFC).

`CNC(=O)[C@H](Cc1ccc(OC)cc1)NC(=O)[C@@H](CC(=O)NO)CC(C)C` gave a Ki of 6 nM.
